Results taken from patent US8212058B2, “Fluorescent photoprobe for the imaging of endothelin receptors” (Universitatskilinikum Munster, priority 2005, dated 2012).
“And” between values parts separate entries of the source, which are not always exact repeats. Equal values may be shown once.

Target: endothelin receptors
Test: Competition binding studies with [125I]ET-1 on mouse ventricular membrane preparations
Settings: 40 pM [125I]ET-1, 10 μg mouse ventricular membranes, 37° C., 4 h

IC50	SMILES
8.4 nM and 9 nM	COc1ccc(C2(O)OC(=O)C(c3ccc4c(c3)OCO4)=C2Cc2cc(OC)c(OC)c(OCCOCCOCCN3C(=O)c4ccccc4C3=O)c2)cc1 (centres unmarked) [Compound 4, 3-Benzo[1,3]dioxol-5-yl-4-(4,5-dimethoxy-3-{2-[2-(2-phthalimidoylethoxy)ethoxy]ethoxy}-benzyl)-5-hydroxy-5-(4-methoxyphenyl)-5H-furan-2-one]
2.2 nM and 2 nM	COc1ccc(C2(O)OC(=O)C(c3ccc4c(c3)OCO4)=C2Cc2cc(OC)c(OC)c(OC)c2)cc1 (centres unmarked) [PD 156707, 3-benzo[1,3]dioxol-5-yl-5-hydroxy-5-(4-methoxyphenyl)-4-(3,4,5-trimethoxybenzyl)-5H-furan-2-one, reference compound]
